Amino acid sequences for entries named in this document (tags omitted). A change or cut given only in a name is not applied to a line headed by its entry.
UniProt P46091: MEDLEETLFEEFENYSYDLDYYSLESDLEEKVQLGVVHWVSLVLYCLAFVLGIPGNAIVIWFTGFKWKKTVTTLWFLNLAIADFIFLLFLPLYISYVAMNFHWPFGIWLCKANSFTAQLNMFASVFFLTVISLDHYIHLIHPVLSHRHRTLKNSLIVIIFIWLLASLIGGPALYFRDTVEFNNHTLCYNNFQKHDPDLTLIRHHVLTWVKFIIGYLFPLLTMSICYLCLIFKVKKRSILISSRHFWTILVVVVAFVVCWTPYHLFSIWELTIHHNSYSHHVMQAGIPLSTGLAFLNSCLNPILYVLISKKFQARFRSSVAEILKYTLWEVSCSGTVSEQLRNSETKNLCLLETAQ

According to PMC12169613 (2025):

Molecular target: Nluc-GPR1 (Homo sapiens, UniProt P46091)
Test: cell-based

## Cc1ccc(S(=O)(=O)c2c[nH]c(SCC(=O)Nc3ccc(C(F)(F)F)cc3)nc2=O)cc1Cl [Compound 16, 2-{[5-(3-Chloro-4-methylbenzenesulfonyl)-4-oxo-1,4-dihydropyrimidin-2-yl]sulfanyl}-N-[4-(trifluoromethyl)phenyl]acetamide]
  Ki: > 1 µM
